# How the values were obtained:
# [1] = test system: IgG and IgM; test: Serum immunoglobulin levels (IgG, IgM) under cladribine tablets
# [2] = test system: lymphocytes; test: Absolute lymphocyte count (ALC) in vaccinated MAGNIFY-MS patients; format: in vivo, human; details: month 6
# [3] = Patient Finland VZV-70056800221620004, month 0, 6.4 wk after Zostavax, before first Mavenclad dose
# [4] = Patient Finland VZV-70056800221620004, month 3, 18.3 wk after Zostavax, 11.9 wk after first Mavenclad dose
# [5] = Patient Finland VZV-70056800221620004, month 6, 32.3 wk after Zostavax, 25.9 wk after first Mavenclad dose
# [6] = Patient Finland VZV-70056800221620004, month 12, 61.3 wk after Zostavax, 54.9 wk after first Mavenclad dose
# [7] = Patient Finland VZV-70056800221620004, month 15, 74.3 wk after Zostavax, 13.0 wk after first dose of previous Mavenclad course
smiles,measurement,setting,value
"Nc1nc(Cl)nc2c1ncn2[C@H]1C[C@H](O)[C@@H](CO)O1 [cladribine tablets, Cladribine]",IgM,"[1]; Patient Australia VZV-70056800221260001, month 0, 8.6 wk after Zostavax, 1.3 wk before first Mavenclad dose",71 mg/dL
same,IgG,[1]; [3],931 mg/dL
same,IgM,[1]; [3],95 mg/dL
same,IgG,[1]; [4],926 mg/dL
same,IgM,[1]; [4],75 mg/dL
same,IgG,[1]; [5],808 mg/dL
same,IgM,[1]; [5],72 mg/dL
same,IgG,[1]; [6],847 mg/dL
same,IgM,[1]; [6],73 mg/dL
same,IgG,[1]; [7],745 mg/dL
same,IgM,[1]; [7],60 mg/dL
same,ALC,"[2]; Patient Canada VZV-70056800222530003, 37.7 wk after Shingrix, 28.0 wk after first Mavenclad dose",800 cells/μL
same,ALC,"[2]; Patient Finland VZV-70056800221620004, 32.3 wk after Zostavax, 25.9 wk after first Mavenclad dose",580 cells/μL

# — US12533408B2, “Treatment regimen for the treatment of autoimmune disorders” (Merck Patent GmbH, priority 2020, dated 2026)
